Results from ChEMBL document CHEMBL1135488, “Prediction of volume of distribution values in humans for neutral and basic drugs using physicochemical measurements and plasma protein binding data” (J Med Chem, 2002).

Experiment: Ionisation constant (pKa)
Type: physicochemical

Cc1nc2n(c(=O)c1CCN1CCC(c3noc4cc(F)ccc34)CC1)CCCC2 [RISPERIDONE]
pKa: 7.91
